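Exposure lasted 48 hours, with cells grown in 96-well plates and compounds tested at five concentrations. The concentration for 50% growth inhibition is given as GI50. At the TGI there is no net growth.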
Legend:
Experiment in all cases: NCI-60 cell line screen, 48 h
M14 melanoma = system: M14 melanoma
HOP-62 NSCLC = system: HOP-62 NSCLC
NCI-H226 lung = system: NCI-H226 lung
SK-OV-3 ovarian = system: SK-OV-3 ovarian
SN12C renal = system: SN12C renal
IGROV1 ovarian = system: IGROV1 ovarian
HOP-92 NSCLC = system: HOP-92 NSCLC
DLD-1 colon = system: DLD-1 colon
NCI-H460 lung = system: NCI-H460 lung
RPMI-8226 leukemia = system: RPMI-8226 leukemia
U251 CNS = system: U251 CNS
SW-620 colon = system: SW-620 colon
DMS 273 small cell lung = system: DMS 273 small cell lung
EKVX NSCLC = system: EKVX NSCLC
LOX IMVI melanoma = system: LOX IMVI melanoma
UO-31 renal = system: UO-31 renal
HL-60(TB) leukemia = system: HL-60(TB) leukemia
SR leukemia = system: SR leukemia
SNB-75 CNS = system: SNB-75 CNS
TK-10 renal = system: TK-10 renal
SF-268 CNS = system: SF-268 CNS
SK-MEL-5 melanoma = system: SK-MEL-5 melanoma
COLO 205 colon = system: COLO 205 colon
UACC-62 melanoma = system: UACC-62 melanoma
HCT-15 colon = system: HCT-15 colon
KM20L2 colon = system: KM20L2 colon
HCC-2998 colon = system: HCC-2998 colon
OVCAR-5 ovarian = system: OVCAR-5 ovarian
RXF 393 renal = system: RXF 393 renal
LXFL 529 NSCLC = system: LXFL 529 NSCLC
MALME-3M melanoma = system: MALME-3M melanoma
DMS 114 small cell lung = system: DMS 114 small cell lung
NCI-H23 lung = system: NCI-H23 lung
OVCAR-8 ovarian = system: OVCAR-8 ovarian
NCI-H322M lung = system: NCI-H322M lung
HT29 colon = system: HT29 colon
KM12 colon = system: KM12 colon
ACHN renal = system: ACHN renal
SK-MEL-28 melanoma = system: SK-MEL-28 melanoma
SF-295 CNS = system: SF-295 CNS
UACC-257 melanoma = system: UACC-257 melanoma
OVCAR-3 ovarian = system: OVCAR-3 ovarian
HCT-116 colon = system: HCT-116 colon
SK-MEL-2 melanoma = system: SK-MEL-2 melanoma

## CC1=CC(=O)OC2(C1)CC1CCC2CN1C (stereo not drawn)
M14 melanoma
  GI50: > 100 µM
  TGI: > 100 µM
HOP-62 NSCLC
  GI50: > 100 µM
  TGI: > 100 µM
NCI-H226 lung
  GI50: > 100 µM
  TGI: > 100 µM
SK-OV-3 ovarian
  GI50: > 100 µM
  TGI: > 100 µM
SN12C renal
  GI50: > 100 µM
  TGI: > 100 µM
IGROV1 ovarian
  GI50: > 100 µM
  TGI: > 100 µM
HOP-92 NSCLC
  GI50: > 100 µM
  TGI: > 100 µM
DLD-1 colon
  GI50: > 100 µM
  TGI: > 100 µM
NCI-H460 lung
  GI50: > 100 µM
  TGI: > 100 µM
RPMI-8226 leukemia
  GI50: > 100 µM
  TGI: > 100 µM
U251 CNS
  GI50: > 100 µM
  TGI: > 100 µM
SW-620 colon
  GI50: > 100 µM
  TGI: > 100 µM
DMS 273 small cell lung
  GI50: > 100 µM
  TGI: > 100 µM
EKVX NSCLC
  GI50: > 100 µM
  TGI: > 100 µM
LOX IMVI melanoma
  GI50: > 100 µM
  TGI: > 100 µM
UO-31 renal
  GI50: > 100 µM
  TGI: > 100 µM
HL-60(TB) leukemia
  GI50: > 100 µM
  TGI: > 100 µM
SR leukemia
  GI50: > 100 µM
  TGI: > 100 µM
SNB-75 CNS
  GI50: > 100 µM
  TGI: > 100 µM
TK-10 renal
  GI50: > 100 µM
  TGI: > 100 µM
SF-268 CNS
  GI50: > 100 µM
  TGI: > 100 µM
SK-MEL-5 melanoma
  GI50: > 100 µM
  TGI: > 100 µM
COLO 205 colon
  GI50: > 100 µM
  TGI: > 100 µM
UACC-62 melanoma
  GI50: > 100 µM
  TGI: > 100 µM
HCT-15 colon
  GI50: > 100 µM
  TGI: > 100 µM
KM20L2 colon
  GI50: > 100 µM
  TGI: > 100 µM
HCC-2998 colon
  GI50: > 100 µM
  TGI: > 100 µM
OVCAR-5 ovarian
  GI50: > 100 µM
  TGI: > 100 µM
RXF 393 renal
  GI50: 65.3 µM
  TGI: > 100 µM
LXFL 529 NSCLC
  GI50: > 100 µM
  TGI: > 100 µM
MALME-3M melanoma
  GI50: > 100 µM
  TGI: > 100 µM
DMS 114 small cell lung
  GI50: > 100 µM
  TGI: > 100 µM
NCI-H23 lung
  GI50: > 100 µM
  TGI: > 100 µM
OVCAR-8 ovarian
  GI50: > 100 µM
  TGI: > 100 µM
NCI-H322M lung
  GI50: > 100 µM
  TGI: > 100 µM
HT29 colon
  GI50: > 100 µM
  TGI: > 100 µM
KM12 colon
  GI50: > 100 µM
  TGI: > 100 µM
ACHN renal
  GI50: > 100 µM
  TGI: > 100 µM
SK-MEL-28 melanoma
  GI50: > 100 µM
  TGI: > 100 µM
SF-295 CNS
  GI50: > 100 µM
  TGI: > 100 µM
UACC-257 melanoma
  GI50: > 100 µM
  TGI: > 100 µM
OVCAR-3 ovarian
  GI50: > 100 µM
  TGI: > 100 µM
HCT-116 colon
  GI50: > 100 µM
  TGI: > 100 µM
SK-MEL-2 melanoma
  GI50: > 100 µM
  TGI: > 100 µM

Reference: PubChem BioAssay (NCI)
